Assay results taken from patent publication US8920832B2, “Composition for nucleic acid transfection” (Hokkaido System Science Co., Ltd., priority 2006, dated 2014).

System: HeLa cells
Test: DNA (pCMV-SPORT-βgal) transfection into HeLa cells: β-gal activity
Settings: enhancer added to liposome solution of Formulation Example 4; summary of Tables 13 and 14 (HeLa and HT1080)

Which “effect of enhancer on nucleic-acid-transfecting performance and cytotoxicity, in words” value does the source give for poly L-lysine here?
The value was “excellent effects”.
